Results from publication PMC7689250, “Synthetic Peptide Libraries Designed From a Minimal Alpha-Helical Domain of AS-48-Bacteriocin Homologs Exhibit Potent Antibacterial Activity” (Frontiers in Microbiology, 2020).

Legend:
sheep erythrocytes = format: cell-based; conditions: red cells of sheep, 1 h
Description: To determine if peptide variants were hemolytic, fresh defibrinated whole sheep blood (Hardy Diagnostics) was washed three times in cold PBS, and washed blood was diluted 1:25 in PBS. Treatments were applied at a 1:10 ratio of sample:blood, where the sample was either 10% Triton, PBS, or a specific peptide concentration corresponding to concentrations used in the MIC assays. Treatments were incubated with the blood for 1 h at 37°C. Following incubation, samples were centrifuged at […] for 10 min at 4°C, and the absorbance of the supernatants at 450 nm was measured on the Synergy H1 Microplate Reader to measure the release of hemoglobin. Percent hemolysis was quantified by normalizing to the negative and positive controls.

S. pyogenes (M1) = format: cell-based, Streptococcus pyogenes; conditions: for MBC: M1; for MIC: M1, 16 h
Description: (§1) Peptides were screened against Escherichia coli (BL21), Streptococcus pyogenes (M1T1 5448, hereby referred to as M1), Pseudomonas aeruginosa (PAO1), and Staphylococcus aureus (USA300). Overnight bacterial cultures were grown in optimal media for each species: Luria-Bertani (LB) broth for E. coli, P. aeruginosa, and S. aureus, and Todd-Hewitt (TH) broth for S. pyogenes. Cultures were pelleted and re-suspended in Mueller-Hinton (MH) broth for peptide screens or minimal inhibitory concentration (MIC) assays, with 1 × 10^6 CFU/mL bacteria added per well ([Wiegand et al., 2008]). MICs for each parent peptide were identified against each bacterial strain as previously described ([Fields et al., 2018]). Members of each peptide library were screened against each bacterial strain at half of the MIC of the corresponding parent peptide to identify library members with increased antimicrobial activity relative to the parent peptide. […] Minimal bactericidal concentrations (MBCs) were determined following the respective MIC assays by plating aliquots from wells corresponding to each peptide concentration from the 96-well plate used for the MIC on species-appropriate agar. Plates were incubated at 37°C overnight, and MBCs were identified as the lowest concentrations of peptide at which no colonies were obtained. A Synergy H1 Microplate Reader (BioTek, Winooski, VT, United States) was used to determine the MICs and identify peptides with greater antimicrobial activity than the corresponding parent peptide by measuring OD 600 of the bacterial cultures in 96-well microtiter plates.

P. aeruginosa (PAO1) = format: cell-based, Pseudomonas aeruginosa; conditions: for MBC: PAO1; for MIC: PAO1, 16 h
Description: as §1

E. coli (BL21) = format: cell-based, Escherichia coli; conditions: for MBC: BL21; for MIC: BL21, 16 h
Description: as §1

S. aureus (USA300) = format: cell-based, Staphylococcus aureus; conditions: for MBC: USA300; for MIC: USA300, 16 h
Description: as §1

MIC (S. pyogenes (M1)) | MIC (P. aeruginosa (PAO1)) | MIC (E. coli (BL21)) | MIC (S. aureus (USA300)) | SMILES | Percent Hemolysis (sheep erythrocytes) | MBC (S. pyogenes (M1)) | MBC (P. aeruginosa (PAO1)) | MBC (E. coli (BL21)) | MBC (S. aureus (USA300))
16 µM | 32 µM | 4 µM | >128 µM | CC[C@H](C)[C@H](NC(=O)[C@H](CO)NC(=O)[C@H](CCC(=O)O)NC(=O)[C@H](CCCNC(=N)N)NC(=O)[C@H](Cc1c[nH]c2ccccc12)NC(=O)[C@H](C)N)C(=O)N[C@@H](CCCCN)C(=O)N[C@@H](C)C(=O)N[C@@H](Cc1ccc(O)cc1)C(=O)N[C@@H](CC(C)C)C(=O)N[C@@H](CCCCN)C(=O)N[C@@H](CCCCN)C(=O)N[C@@H](CCC(=O)O)C(=O)N[C@H](C(=O)N[C@@H](CCCCN)C(=O)N[C@@H](CCCCN)C(=O)N[C@@H](CCCCN)C(=O)NCC(=O)N[C@@H](CCCCN)C(=O)N[C@@H](CCCNC(=N)N)C(=O)N[C@H](C(=O)N[C@H](C(=O)N[C@@H](C)C(=O)N[C@@H](C)C(=O)N[C@@H](Cc1c[nH]c2ccccc12)C(=O)O)C(C)C)[C@@H](C)CC)[C@@H](C)CC [Syn-enterocin-38] | 14.4% | 16 µM | 32 µM | 8 µM | >128 µM
8 µM | 8 µM | 2 µM | 32 µM | CC[C@H](C)[C@H](NC(=O)[C@H](CO)NC(=O)[C@H](CCC(=O)O)NC(=O)[C@H](CCCNC(=N)N)NC(=O)CNC(=O)[C@H](C)N)C(=O)N[C@@H](CCCCN)C(=O)N[C@@H](C)C(=O)N[C@@H](Cc1ccc(O)cc1)C(=O)N[C@@H](CC(C)C)C(=O)N[C@@H](CCCCN)C(=O)N[C@@H](CCCCN)C(=O)N[C@@H](CCC(=O)O)C(=O)N[C@H](C(=O)N[C@@H](CCCCN)C(=O)N[C@@H](CCCCN)C(=O)N[C@@H](CCCCN)C(=O)N[C@@H](Cc1c[nH]c2ccccc12)C(=O)N[C@@H](CCCCN)C(=O)N[C@@H](CCCNC(=N)N)C(=O)N[C@H](C(=O)N[C@H](C(=O)N[C@@H](C)C(=O)N[C@@H](C)C(=O)N[C@@H](Cc1c[nH]c2ccccc12)C(=O)O)C(C)C)[C@@H](C)CC)[C@@H](C)CC [Syn-enterocin-46] |  | 8 µM | 16 µM | 4 µM | >128 µM
